As usually defined, the pIC50 is −log10 of the IC50, conventionally taken in molar units.

In patent US8748423B2, “Compositions and methods for the prevention and treatment of cancer” (Kinex Pharmaceuticals, LLC, priority 2010, dated 2014) one finds IC50 data, which are given here for one compound.

pIC50: −log10 of the molar value.

What all share (type): cell-based
One experiment has as its system SW1088. The experiment in a line: brain tumor cell line growth inhibition, SW1088. The conditions noted are these: Homo sapiens; SW1088, astrocytoma. The method, then:
(§1) These GI50s were determined using standard tumor growth inhibition assays.

Another experiment relates to Daoy. The experiment in a line: brain tumor cell line growth inhibition, Daoy. The note with it: Homo sapiens, desmoplastic cerebellar medulloblastoma. As to the method:
as §1

Another experiment has as its system U87. The experiment in a line: brain tumor cell line growth inhibition, U87. The note with it: Homo sapiens, U-87 MG; U87, glioblastoma; astrocytoma. As to the method: as §1
The next experiment relates to SK-N-MC. Kind of experiment: brain tumor cell line growth inhibition, SK-N-MC. The note with it: Homo sapiens, neuroepithelioma. The method, then:
as §1

As to `Cc1nc(Nc2ncc(C(=O)Nc3c(C)cccc3Cl)s2)cc(N2CCN(CCO)CC2)n1` [Dasatinib, reference compound], the negative-log IC50 (pIC50) with SW1088 is 6.05; with Daoy it was 5.53; in the experiment on U87 it was 5.80; in the experiment with SK-N-MC, 5.29.
